Results: patent publication US20220381657A1, “METHOD FOR PREPARING BIOLOGICAL MATERIAL HAVING EXCELLENT LIGHT-TRANSMITTING PROPERTY” (RIKEN, priority 2016, published 2022)

Experiments:
pH of the chemical = conditions: Table 1
OD400 of the chemical = conditions: Table 1

OCCN(CCO)CCO
pH (pH of the chemical): 12.0
OD400 (OD400 of the chemical): 0.048
